Assay results taken from PubChem BioAssay (EPA / NIEHS).
This is a selection; strong and weak results do not stand in their true shares. Activity calls are given as the source filed them. The calls were made as follows: active = hit-call score of the fitted dose curve at least 0.9, where 1 is the maximum; inactive = score below 0.9.

Key:
[1] = APR_HepG2_CellCycleArrest_24hr: Apredica 24-hour HepG2 Assay for Cell Cycle Arrest (AID 2282905); conditions: imaging, actives raise or lower the signal;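 also: cell cycle arrest scored as ratio of 2N to 4N nuclear DNA content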
How it was run: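 Step one: dose HepG2 with test compounds, 0.39–200 uM, 0.5% DMSO, 24 hr. Step two: fix, permeabilize, stain nuclei with Hoechst 33342. Step three: image six fields per well at 20x, quantify DNA content, fit bidirectionally relative to DMSO.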

[2] = APR_HepG2_NuclearSize_24hr: Apredica 24-hour HepG2 Assay for Nuclear Size (AID 2282907); conditions: high-content imaging, actives raise or lower the signal
How it was run: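 After fixation and permeabilization, 24-hr-treated HepG2 cells were stained with Hoechst 33342 and imaged on an ArrayScan (20x). Doses spanned 0.39–200 uM in duplicate. Nuclear diameter changes in either direction were fitted relative to 0.5% DMSO controls.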

[3] = APR_HepG2_CellLoss_24hr: Apredica 24-hour HepG2 Assay for Cell Loss (AID 2282908); conditions: high-content imaging
Method: APR_HepG2_24hr is a cell-based, multiplexed-readout assay that uses HepG2, a human liver cell line, with measurements taken at 24 hours after chemical dosing in a 384-well plate.APR_HepG2_CellLoss_24hr is one of 10 assay component(s) measured or calculated from the APR_HepG2_24hr assay. It is designed to make measurements of cell number, a form of viability reporter, as detected with fluorescence intensity signals by HCS Fluorescent Imaging technology.Data from the assay component APR_HepG2_CellLoss_24hr was analyzed into 1 assay endpoint. This assay endpoint, APR_HepG2_CellLoss_24hr, was analyzed with bidirectional fitting relative to DMSO as the negative control and baseline of activity. Using a type of viability reporter, measures of all nuclear dna for gain or loss-of-signal activity can be used to understand the viability at the cellular-level. Furthermore, this assay endpoint can be referred to as a secondary readout, because this assay has produced multiple assay endpoints where this one serves a viability function. To generalize the intended target to other relatable targets, this assay endpoint is annotated to the cell cycle intended target family, where the subfamily is proliferation.
(§1) Cells were treated with dimethyl sulfoxide (DMSO) as a solvent control at a final concentration of 0.5% v/v or with compounds in DMSO with a resulting final DMSO concentration of 0.5% v/v. Compound treatment was done at concentrations of 0.39, 0.78, 1.56, 3.12, 6.24, 12.5, 25, 50, 100, and 200 uM in duplicate on each plate. Cells were treated with compounds for 1, 24, or 72 hr. Carbonyl […] m-chloro-phenylhydrazone (CCCP) and taxol were used as positive controls for mitochondrial function and cytoskeletal stability, respectively; DMSO served as the negative control for this experiment. Cells were fixed by the direct addition of 50 uL formaldehyde in Hank's Balanced Salt Solution (HBSS) to a final concentration of 3.7%. After incubation in the fixation medium for 30 min at room temperature (293-298 K), cells were rinsed twice with HBSS and treated with cell permeabilization buffer (16 uL of 0.5% Triton X-100) for 10 min at room temperature (293-298 K) before labeling. For mitochondrial membrane potential and mitochondrial measurements, pre-fixed cells were incubated with 50 uL of MitoTracker Red CMXRos (Invitrogen) at a concentration of 250 nM for 30 min before fixation. In the remaining cases, post-fixed cells were labeled by incubation with a multiplexed mixture of primary antibodies in HBSS for 60 min at room temperature (293-298 K) to detect immunoreactivity of c-Jun (1:500), phospho-histone H3 (1:100), phospho-histone H2A.x (1:200), p53 (1:400), alpha-tubulin (1:200) and Hoechst 33342 (2 ug/mL). Cells were labeled for multiplexed imaging on two separate plates: a) Hoechst 33342, MitoTracker Red, phospho-histone H3, and alpha-tubulin, and b) Hoechst 33342, phospho-histone H2A.x, and c-Jun. A final rinse with HBSS (50 uL) was performed before analysis. The primary and secondary antibodies for the proteins were phospho-histone H3 (rabbit anti-phospho-histone H3 and FITC-donkey anti-rabbit IgG), phospho-histone H2A.x (mouse anti-phospho-histone H2A.x and FITC-donkey anti-mouse IgG), c-Jun (rabbit anti-phospho-c-Jun and Cy3-donkey anti-rabbit IgG), p53 (sheep anti-p53 and Cy5-donkey anti-sheep IgG), alpha-tubulin (mouse anti-alpha-tubulin and Cy5-donkey anti-mouse IgG). […]

[4] = APR_HepG2_MicrotubuleCSK_24hr: Apredica 24-hour HepG2 Assay for Microtubule CSK Stabilty (AID 2282909); conditions: HepG2 microtubule cytoskeleton imaging, actives raise or lower the signal
How it was run: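 Microtubule stability is scored from tubulin immunofluorescence in fixed HepG2 cells imaged at 20x. Cells receive ten compound concentrations up to 200 uM for 24 h; taxol and DMSO serve as positive and negative controls.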

[5] = APR_HepG2_MitoticArrest_24hr: Apredica 24-hour HepG2 Assay for Mitotic Arrest (AID 2282910); conditions: high-content imaging, actives raise or lower the signal
Method: APR_HepG2_24hr is a cell-based, multiplexed-readout assay that uses HepG2, a human liver cell line, with measurements taken at 24 hours after chemical dosing in a 384-well plate.APR_HepG2_MitoticArrest_24hr is one of 10 assay component(s) measured or calculated from the APR_HepG2_24hr assay. It is designed to make measurements of cell phenotype, a form of morphology reporter, as detected with fluorescence intensity signals by HCS Fluorescent Imaging technology.Data from the assay component APR_HepG2_MitoticArrest_24hr was analyzed into 1 assay endpoint. This assay endpoint, APR_HepG2_MitoticArrest_24hr, was analyzed with bidirectional fitting relative to DMSO as the negative control and baseline of activity. Using a type of morphology reporter, measures of protein for gain or loss-of-signal activity can be used to understand the signaling at the pathway-level as they relate to the gene . Furthermore, this assay endpoint can be referred to as a primary readout, because this assay has produced multiple assay endpoints where this one serves a signaling function. To generalize the intended target to other relatable targets, this assay endpoint is annotated to the cell cycle intended target family, where the subfamily is arrest.
as §1

[6] = APR_HepG2_MitoMembPot_24hr: Apredica 24-hour HepG2 Assay for Mitochondrial Membrane Potential (AID 2282911); conditions: imaging, actives raise or lower the signal
How it was run: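 HepG2 human liver cells were exposed 24 hr to compounds at 0.39–200 uM (final DMSO 0.5% v/v) in duplicate. MitoTracker Red CMXRos (250 nM, 30 min) was loaded before formaldehyde fixation; fluorescence was imaged by ArrayScan HCS and fitted bidirectionally versus DMSO.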

[7] = APR_HepG2_MitoMass_24hr: Apredica 24-hour HepG2 Assay for Mitochondrial Mass (AID 2282912); conditions: high-content imaging, actives raise or lower the signal
Method: APR_HepG2_24hr is a cell-based, multiplexed-readout assay that uses HepG2, a human liver cell line, with measurements taken at 24 hours after chemical dosing in a 384-well plate.APR_HepG2_MitoMass_24hr is one of 10 assay component(s) measured or calculated from the APR_HepG2_24hr assay. It is designed to make measurements of cell phenotype, a form of morphology reporter, as detected with fluorescence intensity signals by HCS Fluorescent Imaging technology.Data from the assay component APR_HepG2_MitoMass_24hr was analyzed into 1 assay endpoint. This assay endpoint, APR_HepG2_MitoMass_24hr, was analyzed with bidirectional fitting relative to DMSO as the negative control and baseline of activity. Using a type of morphology reporter, gain or loss-of-signal activity can be used to understand changes in the signaling. Furthermore, this assay endpoint can be referred to as a primary readout, because this assay has produced multiple assay endpoints where this one serves a signaling function. To generalize the intended target to other relatable targets, this assay endpoint is annotated to the cell morphology intended target family, where the subfamily is organelle conformation.
as §1

[8] = APR_HepG2_p53Act_24hr: Apredica 24-hour HepG2 Assay for p53 Activation (AID 2282913); conditions: high-content imaging, actives raise or lower the signal;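 also: p53 protein immunofluorescence averaged per cell in HepG2 with Hoechst nuclei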
How it was run: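 HepG2 cells exposed 24 hr to compounds at 0.39–200 uM (10 concentrations, duplicate), final DMSO 0.5% v/v. After formaldehyde fixation and Triton permeabilization, p53 was immunolabeled (sheep anti-p53, Cy5 secondary) with Hoechst 33342 nuclear counterstain, then imaged by high-content fluorescence microscopy.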

[9] = APR_HepG2_CellCycleArrest_72hr: Apredica 72-hour HepG2 Assay for Cell Cycle Arrest (AID 2282914); conditions: high-content imaging, actives raise or lower the signal
How it was run: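 HepG2 cells were exposed to compounds at 0.39–200 uM (0.5% v/v DMSO final, duplicates) for 72 hr, fixed in 3.7% formaldehyde, permeabilized and stained with Hoechst 33342. Nuclear DNA content was quantified by high-content imaging; gain or loss of signal was fitted bidirectionally against DMSO.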

[10] = APR_HepG2_CellLoss_72hr: Apredica 72-hour HepG2 Assay for Cell Loss (AID 2282915); conditions: high-content imaging

| Compound | outcome [1] | outcome [2] | outcome [3] | outcome [4] | outcome [5] | outcome [6] | outcome [7] | outcome [8] | outcome [9] | outcome [10] | AC50 [8] | AC50 [9] | AC50 [10] |
| --- | --- | --- | --- | --- | --- | --- | --- | --- | --- | --- | --- | --- | --- |
| Cc1ccc([N+](=O)[O-])cc1[N+](=O)[O-] | inactive | inactive | inactive | inactive | inactive | inactive | inactive | inactive | inactive | inactive |  |  |  |
| CC(C)OP(C)(=O)OC(C)C | inactive | inactive | inactive | inactive | inactive | inactive | inactive | inactive | inactive | inactive |  |  |  |
| O=[N+]([O-])c1cccc([N+](=O)[O-])c1 | inactive | inactive | inactive | inactive | inactive | inactive | inactive | inactive | inactive | inactive |  |  |  |
| Cc1c([N+](=O)[O-])cccc1[N+](=O)[O-] | inactive | inactive | inactive | inactive | inactive | inactive | inactive | inactive | inactive | inactive |  |  |  |
| Cc1cccc([N+](=O)[O-])c1[N+](=O)[O-] | inactive | inactive | inactive | inactive | inactive | inactive | inactive |  |  |  | active: 76.5 µM | active: 72.4 µM | active: 77.3 µM |
